{"sequences": {"note": "Chains of the proteins cited; added tags and fusions are not shown. Residues count along the entry.", "UniProt P07711, 114-288 limits assumed": "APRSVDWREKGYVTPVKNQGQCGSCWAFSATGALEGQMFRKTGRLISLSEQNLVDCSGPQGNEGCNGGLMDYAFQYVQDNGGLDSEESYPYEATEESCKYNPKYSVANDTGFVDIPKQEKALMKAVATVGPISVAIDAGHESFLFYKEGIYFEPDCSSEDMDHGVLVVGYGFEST", "UniProt P07711, 292-333 limits assumed": "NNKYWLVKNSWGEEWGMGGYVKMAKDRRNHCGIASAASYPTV"}, "source": "PubChem BioAssay AID460", "about": "(PCMD, 2006)", "note": "This is a selection; strong and weak results do not stand in their true shares. Some of these compounds have results that are not shown, active ones among them. Active and inactive are the calls of the source. Cut-off read from the data, not from the text of the source: active = inhibition above about 45%; inactive = the rest."}
{"target": "Procathepsin L (Homo sapiens) (UniProt P07711)", "test": "inhibitors of human cathepsin L, biochemical (AID 460);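 note: 0% = enzyme with no compound and 100% = no enzyme blank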", "details": "purified cathepsin L, fluorogenic substrate, fluorescence; hits give high values;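 tested at 10 µM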"}
{"smiles": "O=C(OC1CN2CCC1CC2)C(CO)(c1ccccc1)c1ccccc1", "note": "(configuration not stated)", "inhibition": "inactive: 0.86%"}
{"smiles": "CN(C)c1cccc(C(=O)NCC2(N(C)C)CCCCC2)c1", "inhibition": "inactive: 8.82%"}
